Our source for the fold change (FC), %max and Activity values is ChEMBL document CHEMBL3603746, “Discovery of New H2S Releasing Phosphordithioates and 2,3-Dihydro-2-phenyl-2-sulfanylenebenzo[d][1,3,2]oxazaphospholes with Improved Antiproliferative Activity” (J Med Chem, 2015).

Data set [1] can be described thus: Induction of H2S release in 10% PBS:MeCN solution at 5 mM incubated at 22 degC in dark condition measured at 96 hrs by 2, 6-dansyl azide probed-based fluorescence assay relative to GYY4137. Particulars: buffer, 5000 µM.
Data set [2] can be described thus: Induction of H2S release in 10% PBS:MeCN solution at 5 mM incubated at 37 degC in dark condition measured at 96 hrs by 2, 6-dansyl azide probed-based fluorescence assay relative to GYY4137. The conditions noted are these: buffer, 5000 µM.
Data set [3] is described as follows: Induction of H2S release in 10% PBS:MeCN solution at 5 mM incubated at 37 degC in dark condition measured at 96 hrs by 0.2 mM 2, 6-dansyl azide probed-based fluorescence assay relative to control. The conditions noted are these: buffer, 5000 µM.
In the next data set the test system is Hepatocyte. As to the kind of experiment: Toxicity in transforming growth factor alpha transgenic mouse hepatocytes at 100 uM after 24 hrs by CellTiter-Glo cell viability assay. On the technique in general: Cellular ATP, detected with luciferase, serves as a proxy for viable cell number.

As to `C1COCCN1.COc1ccc(P(=S)(S)Oc2ccc(F)cc2F)cc1` (configuration not stated), the fold change (FC) in data set [1] amounted to 0.2; in data set [2], 0.1. The same compound displayed a %max in data set [3] of 0.31%. Moreover, the Activity result in the data set with Hepatocyte was “Non-toxic”.

For `C1COCCN1.COc1ccc(OP(=S)(S)c2ccc(OC)cc2)cc1` (configuration not stated), the fold change (FC) in data set [1] and in data set [2] was 0.1 in each case. For the same compound, the %max in data set [3] was 0.31%. In addition, in the data set on Hepatocyte, the Activity entry is “Non-toxic”.

Take `C1COCCN1.COc1ccc(P(=S)(S)Oc2ccccc2)cc1` (configuration not stated): the fold change (FC) in data set [1] and in data set [2] was 0.1 throughout. In addition, in data set [3], the %max was 0.41%. Besides, in the data set with Hepatocyte, the Activity entry was “Non-toxic”.
